Values of other authors as cited in patent publication US12351592B2 (UNIVERSIDAD SANTIAGO DE CALI, priority 2019, dated 2025).

Details: in vivo

binding to plasmatic proteins: not bound to plasmatic proteins
SMILES: CN(C)C(=N)N=C(N)N [Metformin]
